Measured values: patent publication US9289381B2, “Stabilization and storage of biological pharmaceutical compositions” (The University of North Carolina at Charlotte, priority 2009, dated 2016)
Read-outs that look alike come from different tables or passages of the source.

How the values were obtained:
[1] = system: metastatic renal cell cancer (RCC) and malignant melanoma; settings: cited from earlier work
[2] = pH-buffered
[3] = Circular dichroism of IL-2: secondary structure and melting temperature (Example 5); type: physicochemical
[4] = cited from earlier work
[5] = in vivo, iv; cited from earlier work
[6] = IL-2 in 30 mM CDHP, pH 7.40, 25° C.
[7] = IL-2 in 30 mM CDHP, rescanned after temperature scan
[8] = IL-2 in 30 mM NaH2PO4, pH 7.40, 25° C.
[9] = IL-2 in 30 mM NaH2PO4, rescanned after temperature scan
[10] = IL-2 in 185 mM CDHP, pH 7.40, 25° C.
[11] = IL-2 in 185 mM CDHP, rescanned after temperature scan
[12] = IL-2 in 680 mM CDHP, pH 7.40, 25° C.
[13] = IL-2 in 680 mM CDHP, rescanned after temperature scan

Substance: IL-2: Interleukin-2, a single 133 amino acid polypeptide of molecular weight 15.5 kDa; lyophilized IL-2, human (GenScript) in Example 5
- patients with durable cancer remission ([1]; high-dose bolus rIL-2 i.v. (Sparano 1993)): 5-10%
- patients with disease regression ([1]; stage IV metastatic melanoma, systemic i.v.): 15-20%
- IL-2 melting (unfolding) temperature Tm ([2]; with 30 mM CDHP): 52.3 °C
- IL-2 melting (unfolding) temperature Tm ([2]; without C-DHP): 53.9 °C
- increase of Tm ([3]; 680 mM CDHP vs 30 mM NaH2PO4): 12.5 °C
- Secondary Structure Content, Turns [3, 6]: 0.17
- Secondary Structure Content, Unordered [3, 6]: 0.23
- Secondary Structure Content, α-Helix [3, 6]: 0.42
- Secondary Structure Content, β-Sheet [3, 6]: 0.18
- Rescan, % Change, Turns [3, 7]: 6%
- Rescan, % Change, Unordered [3, 7]: 70%
- Rescan, % Change, α-Helix [3, 7]: −43%
- Secondary Structure Content, Turns [3, 8]: 0.17
- Secondary Structure Content, Unordered [3, 8]: 0.30
- Secondary Structure Content, β-Sheet [3, 8]: 0.13
- Secondary Structure Content, α-Helix ([3]; IL-2 in 30 mM NaH2PO4, pH 7.40, 25° C., CDSSTR reference set 7): 0.40
- Rescan, % Change, Turns [3, 9]: 6%
- Rescan, % Change, β-Sheet [3, 9]: 54%
- Rescan, % Change, α-Helix ([3]; IL-2 in 30 mM NaH2PO4, rescanned at 25° C. after temperature scan): −40%
- Secondary Structure Content, Turns [3, 10]: 0.17
- Secondary Structure Content, Unordered [3, 10]: 0.19
- Secondary Structure Content, α-Helix [3, 10]: 0.47
- Secondary Structure Content, β-Sheet [3, 10]: 0.19
- Rescan, % Change, Turns [3, 11]: 18%
- Rescan, % Change, Unordered [3, 11]: 116%
- Rescan, % Change, α-Helix [3, 11]: −66%
- Rescan, % Change, β-Sheet [3, 11]: 32%
- Secondary Structure Content, Turns [3, 12]: 0.13
- Secondary Structure Content, Unordered [3, 12]: 0.16
- Secondary Structure Content, α-Helix [3, 12]: 0.53
- Secondary Structure Content, β-Sheet [3, 12]: 0.17
- Rescan, % Change, Turns [3, 13]: 38%
- Rescan, % Change, Unordered [3, 13]: 181%
- Rescan, % Change, α-Helix [3, 13]: −68%
- Rescan, % Change, β-Sheet [3, 13]: 24%
- appearance after thermal scan ([3]; IL-2 solutions with 185 and 680 mM CDHP): macroscopically observable precipitates
- Tm determined calorimetrically ([4]; 1 mg/mL IL-2 in 20 mM sodium phosphate, 150 mM NaCl, pH 7.5 (Wang, 2008)): 66 °C
- temperature of irreversible denaturation and aggregation in solution ([4]; Sasaoki 1992): > 44 °C
- plasma half-life, initial elimination phase [5]: 7 to 14 min
